Patent US11927585B2, “Solvent-based inks and coatings for food contact applications” (SUN CHEMICAL CORPORATION, priority 2020, dated 2024)
Some compounds may have been tested in ways that are not shown here.

Assay: Worst-case calculation, Application 3 coffee capsule exposure scenario

OCCN(CCO)CCO
Worst-case calculation as a percentage of SML (or restriction), Application 3 (0.0913 m2 packaging) (product SBDEV977, 100% migration): 3.0 percentage of SML (or restriction)
Worst-case calculation as a percentage of SML (or restriction), Application 3 (0.0913 m2 packaging) (product SBDEV1287, 100% migration): 3.0 percentage of SML (or restriction)
